{
  "source": "paper PMC7007416",
  "about": "(Analytical and Bioanalytical Chemistry, 2019)",
  "system": "Caco-2 and HT29-MTX-E12 cells (ratio 3:1)",
  "settings": "24 h exposure, WST-1; negative control medium with 0.5% DMSO",
  "method": "With the WST-1 assay, mitochondrial activity of the cell is measured by the conversion of WST-1 into formazan dye by mitochondrial dehydrogenase enzymes. The assay is performed as follows: Caco-2 and HT29-MTX-E12 cells (ratio 3:1) were seeded in Greiner Bio-One (Alphen aan den Rijn, The Netherlands) flat-bottom 96-well plates at a concentration of 1 × 10^5 cells/mL in cell culture medium (100 μL/well). Plates were incubated for 24 h at 37 °C under 5% CO2. […] Then, the exposure medium containing (dilutions of) the compounds of interest was discarded and the cells were washed with pre-warmed HBSS. Subsequently, WST-1 reagent (in cell culture medium without phenol red) was added to the cells (1:10, 100 μL/well). After 1.5 h of incubation at 37 °C, the absorbance of each well was measured at 440 nm using a Bio-Tek (Winooski, VT, USA) Synergy HT Multi-Mode microplate reader.",
  "data": [
    {"substance": "ergotamin(in)e D-tartrate", "values": [
      {"measurement": "non-toxic concentration", "result": "≤ 10", "unit": "µg/mL"}
    ]}
  ]
}
